Experimental data published in patent US11300510B2, “Fluorescent sensing film for pH planar optode, preparation method and application” (NANJING UNIVERSITY, priority 2018, dated 2022).

Experiment: Log D (octanol-water partition coefficient versus pH) by potentiometric titration with a Pulse instrument
Details: FIG. 12

Substance: dimethylamine-HPTS [HPTS-dimethylamine]
- Log D curve (octanol-water partition coefficient with pH) (pH of 9 or above): water solubility
- Log D curve (octanol-water partition coefficient with pH) (under acidic conditions): fat solubility
